Data: patent US6946447B2, “MDM2-specific antisense oligonucleotides” (Hybridon, Inc., priority 1997, dated 2005)

How the values were obtained:
[1] = system: MDM2, p53 and p21 protein levels in LS174T cells; assay: Western blot of MDM2, p53 and p21 in LS174T cells; format: cell-based, human; conditions: 24 hr (FIG. 20, lane A)
Source text: (§1) Chemicals and Reagents. Cell culture media and phosphate-buffered saline (PBS) were obtained from Sigma Chemical Co. (St. Louis, Mo.). Fetal bovine serum (FBS), antibodies against p53 and p21, Lipofectin, trypsin, penicillin-streptomycin, and trypan blue stain were purchased from GIBCO-BRL (Grand Island, N.Y.). The anti-human-MDM2 monoclonal antibody (Chen L. et al., Proc Natl Acad Sci USA, 95: 195-200, 1998; Chen L. et al., Mol. Med. 5: 21-34, 1999) was kindly provided by J. Chen (Moffitt Cancer Center, Tampa, Fla.). Chemotherapeutic agents adriamycin and 5-fluorouracil (5-FU) were obtained from Sigma. Natural product topoisomerase I inhibitor 10-hydroxycamptothecin (HCPT) was obtained from the Midwest Co. (Beijing, China) with the purity of the drug being greater than 98% (Zhang R. et al., Cancer Chemother Pharm 41: 257-267, 1998). Cell Culture. The tumor cell lines, LS174T and DLD-1 were obtained from the American Type Culture Collection (Rockville, Md.) and cultured according to their instructions. […] The MDM2, p53 and p21 levels in cultured cells were analyzed by using the methods described previously (earlier (Chen L. et al., Proc Natl Acad Sci USA, 95: 195-200, 1998; Chen L. et al., Mol. Med. 5: 21-34, 1999; Wang H. et al., Int J. Oncol. 15: 653-660, 1999). In brief, cell lysate containing identical amounts of total protein were fractionated by SDS-PAGE and transferred to Bio-Rad Trans-Blot nitrocellulose membranes (Bio-Rad Laboratories, Hercules, Calif., USA). The nitrocellulose membrane was then incubated with blocking buffer (PBS containing 0.1% Tween 20 and 5% non-fat milk) for 1 hr at room temperature and washed with the washing buffer (PBS containing 0. […] After washing as described above the protein of interest was detected by ECL reagents from Amersham (Arlington Height, Ill.). […]
Following in vitro combination treatment of Oligos and chemotherapeutic agents HCPT, adriamycin, and 5-FU, the protein levels of MDM2, p53 and p21 were determined in LS174T cells. […]

[2] = system: MDM2, p53 and p21 protein levels in DLD-1 cells; assay: Western blot of MDM2, p53 and p21 in DLD-1 cells; format: cell-based, human; conditions: 24 hr (FIG. 24, lane A)
Source text: as §1
Following in vitro combination treatment of Oligos and chemotherapeutic agents HCPT, adriamycin, and 5-FU, the protein levels of MDM2, p53 and p21 were determined in DLD-1 cells. […]

[3] = system: human colon cancer DLD-1 xenografts; assay: Tumor growth in nude mice bearing DLD-1 xenografts; format: in vivo
SJSA xenografts = assay: Tumor growth in nude mice bearing SJSA xenografts; format: in vivo; conditions: for effect on tumor growth: SJSA xenografts (average 150 mg), ip, 5 doses/week
Method: 51:173-182, 1996). […] The control group received physiological saline only.
Tumor growth was monitored using the methods previously reported (74,75). Tumor weight (g) was calculated by the formula, ½·a·b^2, where “a” is the long diameter (cm) and “b” is the short diameter (cm) of the tumor. At the end of the experiment, tumors were removed, weighed, and then fixed for pathology evaluation.

[4] = not given; remark: listed apart in the source
[5] = system: human colon cancer LS174T xenografts; assay: Tumor growth in nude mice bearing LS174T xenografts
JAR xenografts = assay: Tumor regression and survival of nude mice bearing large JAR xenografts, intratumoral injection; conditions: direct injection, HCPT 3 mg/kg/day
[6] = day 3, oligo 20, HCPT 3, 5-FU 10 mg/kg/day
[7] = day 6, oligo 20, HCPT 3, 5-FU 10 mg/kg/day
[8] = day 9, oligo 20, HCPT 3, 5-FU 10 mg/kg/day
[9] = day 12, oligo 20, HCPT 3, 5-FU 10 mg/kg/day
[10] = day 15, oligo 20, HCPT 3, 5-FU 10 mg/kg/day
[11] = day 18, oligo 20, HCPT 3, 5-FU 10 mg/kg/day
[12] = day 21 (end of experiment), oligo 20, HCPT 3, 5-FU 10 mg/kg/day
[13] = female, nude, mouse, in vivo, 3 day
[14] = female, nude, mouse, in vivo, 6 day
[15] = female, nude, mouse, in vivo, 9 day
[16] = female, nude, mouse, in vivo, 12 day
[17] = female, nude, mouse, in vivo, 15 day
[18] = female, nude, mouse, in vivo, 18 day

## CC[C@@]1(O)C(=O)OCc2c1cc1n(c2=O)Cc2cc3cc(O)ccc3nc2-1 [HCPT, 10-hydroxycamptothecin]
[1]
  MDM2, p53 and p21 protein levels, chemotherapeutic agent alone: induced p53, p21, and MDM2 in a dose-dependent manner
[2]
  MDM2, p53 and p21 protein levels, chemotherapeutic agent alone: induced MDM2 and p21 in a dose-dependent manner
[3]
  xenograft pathology (tumor histology): histologically similar to the control tumors
[3]; after 21-day treatment, HCPT 3 mg/kg/day first week, then every other day
  tumor growth inhibition: approximately 51%
[3]; [6]
  Growth ratio % T:C: 87.7%
[3]; [7]
  Growth ratio % T:C: 74.0%
[3]; [8]
  Growth ratio % T:C: 62.3%
[3]; [9]
  Growth ratio % T:C: 51.4%
[3]; [10]
  Growth ratio % T:C: 60.8%
[3]; [11]
  Growth ratio % T:C: 56.3%
[3]; [12]
  Growth ratio % T:C: 51.0% and 44%
SJSA xenografts
  effect on tumor growth: dose-dependent effect
Day 3, mice bearing LS174T xenografts
  Survival Rates of Animals: 100%
Day 6, mice bearing LS174T xenografts
  Survival Rates of Animals: 100%
Day 9, mice bearing LS174T xenografts
  Survival Rates of Animals: 66.7%
Day 12, mice bearing LS174T xenografts
  Survival Rates of Animals: 50.0%
Day 15, mice bearing LS174T xenografts
  Survival Rates of Animals: 50.0%
Day 18, mice bearing LS174T xenografts
  Survival Rates of Animals: 50.0%
[4]; day 3, mice bearing DLD-1 xenografts
  Survival Rates of Animals: 100%
[4]; day 6, mice bearing DLD-1 xenografts
  Survival Rates of Animals: 100%
[4]; day 9, mice bearing DLD-1 xenografts
  Survival Rates of Animals: 100%
[4]; day 12, mice bearing DLD-1 xenografts
  Survival Rates of Animals: 100%
[4]; day 15, mice bearing DLD-1 xenografts
  Survival Rates of Animals: 100%
[4]; day 18, mice bearing DLD-1 xenografts
  Survival Rates of Animals: 100%
[4]; day 21, mice bearing DLD-1 xenografts
  Survival Rates of Animals: 100%
[5]
  xenograft pathology (tumor histology): large necropurulent, ulcerative changes
[5]; HCPT 3 mg/kg/day first week, then every other day
  tumor growth inhibition: approximately 50%
[5]; [6]
  Growth ratio % T:C (mean tumor mass of treated group vs saline control): 74.4%
[5]; [7]
  Growth ratio % T:C (mean tumor mass of treated group vs saline control): 41.2%
[5]; [8]
  Growth ratio % T:C (mean tumor mass of treated group vs saline control): 30.0%
[5]; [9]
  Growth ratio % T:C (mean tumor mass of treated group vs saline control): 43.7%
[5]; [10]
  Growth ratio % T:C (mean tumor mass of treated group vs saline control): 49.1%
JAR xenografts
  effect on tumor regression and animal survival: no effect

## O=c1[nH]cc(F)c(=O)[nH]1 [Oligo 5-FU, 5-fluorouracil]
[1]
  MDM2, p53 and p21 protein levels, chemotherapeutic agent alone: induced p53, p21, and MDM2 in a dose-dependent manner
[2]
  MDM2, p53 and p21 protein levels, chemotherapeutic agent alone: significantly induced MDM2 in a dose-dependent manner
[3]
  xenograft pathology (tumor histology): histologically similar to the control tumors
[3]; [6]
  Growth ratio % T:C: 79.4%
[3]; [7]
  Growth ratio % T:C: 75.8%
[3]; [8]
  Growth ratio % T:C: 61.2%
[3]; [9]
  Growth ratio % T:C: 46.2%
[3]; [10]
  Growth ratio % T:C: 54.3%
[3]; [11]
  Growth ratio % T:C: 55.6%
[3]; [12]
  Growth ratio % T:C: 44.0%
[13]
  Survival Rates of Animals: 100%
[14]
  Survival Rates of Animals: 100%
[15]
  Survival Rates of Animals: 100%
[16]
  Survival Rates of Animals: 100%
[17]
  Survival Rates of Animals: 100%
[18]
  Survival Rates of Animals: 100%
[4]; [13]
  Survival Rates of Animals: 100%
[4]; [14]
  Survival Rates of Animals: 100%
[4]; [15]
  Survival Rates of Animals: 100%
[4]; [16]
  Survival Rates of Animals: 100%
[4]; [17]
  Survival Rates of Animals: 100%
[4]; [18]
  Survival Rates of Animals: 100%
[4]; female, nude, mouse, in vivo, 21 day
  Survival Rates of Animals: 100%
[5]
  xenograft pathology (tumor histology): No significant histological changes
[5]; [6]
  Growth ratio % T:C (mean tumor mass of treated group vs saline control): 50.1%
[5]; [7]
  Growth ratio % T:C (mean tumor mass of treated group vs saline control): 40.2%
[5]; [8]
  Growth ratio % T:C (mean tumor mass of treated group vs saline control): 32.5%
[5]; [9]
  Growth ratio % T:C (mean tumor mass of treated group vs saline control): 39.7%
[5]; day 18 (end of experiment), oligo 20, HCPT 3, 5-FU 10 mg/kg/day
  Growth ratio % T:C (mean tumor mass of treated group vs saline control): 45.3%

## COc1cccc2c1C(=O)c1c(O)c3c(c(O)c1C2=O)C[C@@](O)(C(=O)CO)C[C@@H]3O[C@H]1C[C@H](N)[C@H](O)[C@H](C)O1 [adriamycin]
[1]
  MDM2, p53 and p21 protein levels, chemotherapeutic agent alone: slightly induced p53, p21 and MDM2
[2]
  MDM2, p53 and p21 protein levels, chemotherapeutic agent alone: induced p21 and MDM2

## AS5-2HM: mismatch control hybrid oligonucleotide, 5′-UGAGACCAGTTGTCAGUCAC-3′, SEQ ID NO:48 (DNA mU*mG*dA*dG*dA*dC*dC*dA*dG*dT*dT*dG*dT*dC*dA*dG*mU*mC*mA*mC)
SJSA xenografts
  effect on tumor growth: no effect
SJSA xenografts; SJSA xenografts, co-administration with HCPT
  synergistic effect with HCPT on tumor growth: no synergistic effect

Several values for one entry are separate records, joined by “and”; a condition that tells them apart may be missing. Equal entries are not always repeated. Where two headings read alike, the source gives them in different places. Strand notation (5' to 3'): a small letter for the sugar, then the base; units joined by * are phosphorothioate-linked, units joined directly phosphodiester-linked; [ ] holds rarer units or linkages, { } end groups; capitals alone tell only the bases. d = 2'-deoxy (DNA); m = 2'-O-methyl
